AlphaSeq binding of Ab-14 heavy chain variants to a spike HR2 peptide

Target: peptide PDVDLGDISGINAS, taken from heptad repeat 2 (HR2) of SARS-CoV-2 spike.

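The starting antibody came from a phage panning campaign against this peptide. Library AAYL49 holds single substitutions and randomly drawn double and triple substitutions in the CDRs. AlphaSeq pools MATa yeast showing the antibodies with MATalpha yeast showing the peptide. After mating in shaken culture at 30 °C for 16 h, diploids were selected and their barcode pairs sequenced. A regression on co-assayed BCL2-family reference pairs converts the normalised counts of each replicate to an apparent Kd. There are three technical replicates.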

Parent: Ab-14, a human scFv built as VH, three GGGGS repeats, VL. Only the CDRs of the heavy chain vary.
VH: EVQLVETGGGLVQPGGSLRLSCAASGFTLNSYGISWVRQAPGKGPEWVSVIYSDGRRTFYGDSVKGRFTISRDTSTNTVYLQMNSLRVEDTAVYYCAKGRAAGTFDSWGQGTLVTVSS
VL: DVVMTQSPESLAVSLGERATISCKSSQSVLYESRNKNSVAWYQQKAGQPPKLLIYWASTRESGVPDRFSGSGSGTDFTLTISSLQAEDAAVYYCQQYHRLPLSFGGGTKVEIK

The parent's heavy chain CDRs are GFTLNSYGIS, VIYSDGRRTFYGDSVK, GRAAGTFDS; each variant's own CDRs replace them letter for letter.
Every variant below is changed at Y32 of the VH (sequential numbering).
Numbers give log10(Kd / nM), so 0 is 1 nM and 3 is 1 µM. Smaller is tighter.
Averages over replicates are reported, and they cover detected replicates only.
Where no diploid with the target was found in that replicate, the entry reads "ND": below detection, most likely a poor binder, though not proof of it.

CDR-H1	CDR-H2	CDR-H3	log10 Kd, replicates	log10 Kd (nM), mean	control signals
GFTLNSKGIS	VIVSDGRRTFYKDSVK	GRAAGTFDS	ND ND ND	ND	2 of 9 (2.99)
GFTLNSHGIS	VCYQDGRRTFYGDSVK	GRAAGTFDS	ND ND ND	ND	1 of 9 (3.01)
GFTLNSGGIS	VIYSDGRRYFYGDSVK	GRAAGTFDS	4.04 4.46 4.69	4.39	2 of 9 (4.29)
GFTLSSFTIS	VIYSDGRRTFYGDSVK	GRAAGTFDS	ND ND ND	ND	2 of 9 (4.18)
GFTLNTMGIS	VIYSDGRRTFYGDSVK	GRAAGRFDS	2.62 2.34 3.08	2.68	3 of 9 (3.76)
GFTLNSFGIS	VSYSDGRRTFYGASVK	GRAAGTFDS	ND ND ND	ND	2 of 9 (4.31)
GFELNSCGIS	VIYSDGRRTFYGDSVK	GRAAGTFDS	2.36 1.81 2.74	2.30	1 of 9 (3.94)
GFTLNVPGPS	VIYSDGRRTFYGDSVK	GRAAGTFDS	ND ND ND	ND	0 of 9
EFTLNSPGIS	VIYSDTRRTFYGDSVK	GRAAGTFDS	ND ND ND	ND	0 of 9
GFTLNSFGIS	VIYSDGRRTFYGDSVK	MRAAGTFTS	ND 3.34 ND	3.34	0 of 9
GFQLNSGGIS	VIYSDGRRTFYGDSVG	GRAAGTFDS	ND ND ND	ND	1 of 9 (3.50)
GFTLNSVGIS	VIYSDGRRTFYGDSFK	GRWAGTFDS	3.32 2.66 2.77	2.91	0 of 9
GFTLNSTGIM	VIWSDGRRTFYGDSVK	GRAAGTFDS	ND 4.17 4.46	4.31	8 of 9 (4.74)
GFVLNSCGIS	VIYSDGRRTFYGDSVH	GRAAGTFDS	ND ND ND	ND	0 of 9
GFTLNSGGIS	VIYSDGRRTWYGDSVK	GRAYGTFDS	ND ND ND	ND	0 of 9
GFTLNSKGIS	HIYSDGRRTFYGDSVK	SRAAGTFDS	ND ND ND	ND	0 of 9
GFTLNSLGIS	VIYSDGRRTFYGPSVK	GRAAGTFDN	ND ND ND	ND	0 of 9
GFTLNSLEIS	VIYSDGRRTFYGDSVK	GRAAKTFDS	ND 3.81 ND	3.81	0 of 9
GFTLNSQGIS	VIYSDGRRIFYPDSVK	GRAAGTFDS	ND ND ND	ND	3 of 9 (3.12)
GFTLNSRGIS	VIGSDGLRTFYGDSVK	GRAAGTFDS	4.25 ND ND	4.25	4 of 9 (4.99)
GFTLNSWGIS	VIYSDGRRTFYGFSVK	GRAAGTFDS	ND ND ND	ND	0 of 9
GPTLNSHGIS	VIYSDGRRTFYGDSVK	GRAAGTFAS	ND ND ND	ND	0 of 9
GFTLNSHGIS	VIYSDGRRTWYGDSVK	GRNAGTFDS	ND ND ND	ND	0 of 9
GFTLNSLGIS	VIYSDGRRTFYGDRVK	GRAAGTFDS	3.32 ND 4.35	3.84	3 of 9 (4.59)
GFTLNSDGIS	VIYSDGRRTFYFDSVK	GRATGTFDS	ND ND ND	ND	0 of 9
CFTLNSKGIS	VIYSDGRRTFYGDPVK	GRAAGTFDS	1.93 2.20 2.17	2.10	2 of 9 (4.58)
GFTLNSTGIS	VIYSDGRRRFAGDSVK	GRAAGTFDS	ND 3.56 ND	3.56	4 of 9 (4.41)
GFTLNSNGWS	VIYSDGRRTFYGDSVK	GNAAGTFDS	ND ND ND	ND	1 of 9 (3.21)
GFTLNSVGIS	VIYSDGRRTFYGDSVK	GRAAGTFDS	1.73 1.78 3.62	2.38	0 of 9
GFTLNSIGIS	VIYSDGRRTFYGDSVK	GRAAGTFDS	3.40 3.72 4.01	3.71	2 of 9 (2.91)
GFTLNSNGIS	VPYSDGRRTFYGDVVK	GRAAGTFDS	ND ND 4.69	4.69	1 of 9 (5.13)
YFTLNSLGIF	VIYSDGRRTFYGDSVK	GRAAGTFDS	ND 3.20 ND	3.20	2 of 9 (3.71)
GFTLNSGGIS	VIYSIGRRNFYGDSVK	GRAAGTFDS	ND ND ND	ND	0 of 9
GFTLNSHGIS	VIKSDGRRTFYGDSVK	GYAAGTFDS	ND ND ND	ND	0 of 9
GFTLNSNGIS	YIYSPGRRTFYGDSVK	GRAAGTFDS	ND ND ND	ND	0 of 9
GFTLNSMGIS	VRLSDGRRTFYGDSVK	GRAAGTFDS	ND ND ND	ND	1 of 9 (4.73)
GFTLFSAGIS	LIYSDGRRTFYGDSVK	GRAAGTFDS	ND ND 2.76	2.76	0 of 9
GFTLNSHGIS	VIYSDGRRTFYGDSVK	GRAAGTRDS	ND ND ND	ND	0 of 9
GFTLNSKGIS	IIYSDGRRTFYGDSVK	NRAAGTFDS	3.84 3.04 ND	3.44	0 of 9
GFTLNSLGIT	VIYSDGRRTFYGDSVK	GRAAGTWDS	ND ND ND	ND	1 of 9 (4.10)

The first 6 variants above that were never detected:

CDR-H1,CDR-H2,CDR-H3,"log10 Kd, replicates","log10 Kd (nM), mean",control signals
GFTLNSKGIS,VIVSDGRRTFYKDSVK,GRAAGTFDS,ND ND ND,ND,2 of 9 (2.99)
GFTLNSHGIS,VCYQDGRRTFYGDSVK,GRAAGTFDS,ND ND ND,ND,1 of 9 (3.01)
GFTLSSFTIS,VIYSDGRRTFYGDSVK,GRAAGTFDS,ND ND ND,ND,2 of 9 (4.18)
GFTLNSFGIS,VSYSDGRRTFYGASVK,GRAAGTFDS,ND ND ND,ND,2 of 9 (4.31)
GFTLNVPGPS,VIYSDGRRTFYGDSVK,GRAAGTFDS,ND ND ND,ND,0 of 9
EFTLNSPGIS,VIYSDTRRTFYGDSVK,GRAAGTFDS,ND ND ND,ND,0 of 9

As a blank, each scFv also met three strains without target: over library AAYL49, 15% of these pairings were detected, typically at 4.06 and seldom below 2.83. The control count says in how many pairings with the empty strains this scFv gave a signal, with their mean in brackets.

Source: Engelhart et al. 2022 (doi:10.1038/s41597-022-01779-4), MIT Lincoln Laboratory and A-Alpha Bio; data file from the FLAb repository.